Experimental data taken from PubChem BioAssay (Tox21).
Values joined by “and” are separate entries in the source; they are usually repeats but may differ in a detail not shown here. Identical values can stand only once. This is a selection; strong and weak results do not stand in their true shares. Inconclusive results are not listed. Active and inactive are the calls of the source. Calls come from the whole dose curve.

Chains of the proteins cited; added tags and fusions are not shown.
UniProt P11473, whole entry: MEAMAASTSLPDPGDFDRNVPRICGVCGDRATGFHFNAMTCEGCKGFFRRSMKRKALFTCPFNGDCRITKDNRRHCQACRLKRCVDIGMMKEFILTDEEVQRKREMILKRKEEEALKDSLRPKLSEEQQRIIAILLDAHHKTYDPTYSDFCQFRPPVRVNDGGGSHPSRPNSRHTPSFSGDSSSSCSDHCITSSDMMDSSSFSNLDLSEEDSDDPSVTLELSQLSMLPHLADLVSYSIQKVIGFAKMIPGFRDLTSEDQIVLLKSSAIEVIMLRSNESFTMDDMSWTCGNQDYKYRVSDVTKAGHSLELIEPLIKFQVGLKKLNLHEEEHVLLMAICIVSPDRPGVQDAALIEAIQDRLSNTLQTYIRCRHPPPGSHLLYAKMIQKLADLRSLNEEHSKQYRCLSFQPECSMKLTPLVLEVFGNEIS

biological target: Vitamin D3 receptor (Homo sapiens) (UniProt P11473); assay: qHTS assay to identify small molecule agonists of the vitamin D receptor (VDR) signaling pathway (AID 743222); settings: HEK293T VDR-UAS-bla, beta-lactamase FRET ratio, 16 h; at 63.5 µM (top of the series)
Description: National Center for Advancing Translational Sciences [NCATS]
NIH Chemical Genomics Center [NCGC]
U.S. Environmental Protection Agency [EPA]
National Institutes of Environmental Health Sciences [NIEHS]
National Toxicology Program [NTP]
U.S. Food and Drug Administration [FDA]
The vitamin D receptor (VDR), a member of nuclear hormone receptor superfamily, plays a critical role in calcium homeostasis and bone metabolism. It is also involved in cell differentiation and growth, and thrombogenicity.
Tox21 Assay Protocol Summary:
VDR-bla cells were dispensed at 2,000 cells/6 uL/well into black wall/clear-bottom 1536-well plates using a Multidrop Combi (Thermo Fisher Scientific, Waltham, MA) dispenser. After the assay plates were incubated at a 37C and 5% CO2 for 4 h, 23 nL of compounds dissolved in DMSO, positive controls or DMSO only was transferred to the assay plate by a Pintool station (Kalypsys, San Diego, CA). The plates were incubated at 37C and 5% CO2 for 16 h. After 1 uL of LiveBLAzerTM B/G FRET substrate was added using a Bioraptr Flying Reagent Dispenser (FRD) workstation (Beckman Coulter, Indianapolis, IN, USA), the plates were incubated at room temperature for 2 h, and fluorescence intensity was measured by an Envision plate reader (PerkinElmer, Shelton, CT).
% is set by controls: 0 for no effect and ±100 for the full control effect.

SMILES	activation
COP(C)(=O)OC	inactive: 0.369%
OCCSCCO	inactive: -2.4%
Cc1ccc([N+](=O)[O-])c([N+](=O)[O-])c1	inactive: -7.83%
COc1ccc([N+](=O)[O-])cc1[N+](=O)[O-]	inactive: 0.351%
O=[N+]([O-])OCC(CO[N+](=O)[O-])(CO[N+](=O)[O-])CO[N+](=O)[O-]	inactive: 1.97%
CCOP(=O)(CC)Oc1ccc([N+](=O)[O-])cc1 (configuration not stated)	inactive: 14.1%
Cc1c([N+](=O)[O-])cccc1[N+](=O)[O-]	inactive: -1.44% and inactive: -0.522%
CCOP(=O)(CC)OCC	inactive: -2.31%
C/C1=C2N=C(/C=C3N=C(/C(C)=C4\[N-][C@@](C)([C@@H]5N=C1[C@](C)(CCC(=O)NC[C@@H](C)OP(=O)([O-])O[C@H]1[C@@H](O)[C@@H](n6cnc7cc(C)c(C)cc76)O[C@@H]1CO)[C@H]5CC(N)=O)[C@@](C)(CC(N)=O)[C@@H]4CCC(N)=O)[C@@](C)(CC(N)=O)[C@@H]\3CCC(N)=O)C(C)(C)[C@@H]/2CCC(N)=O.[C-]#N.[Co+3]	inactive: 7.18%
CP(=O)(O)OCCC[Si](O)(O)O	inactive: 10.1%
Cc1ccc([N+](=O)[O-])cc1[N+](=O)[O-]	inactive: 1.15% and inactive: 5.07%

same assay, conditions: HEK293T VDR-UAS-bla, beta-lactamase FRET ratio, 16 h; at 81.1 µM (top of the series)

SMILES	activation
Nc1cc([N+](=O)[O-])cc([N+](=O)[O-])c1O	inactive: -0.118%
COP(C)(=O)OC	inactive: -1.53%
OCCSCCO	inactive: -2.04%
Cc1ccc([N+](=O)[O-])c([N+](=O)[O-])c1	inactive: 2.76%
CCN(CC)CCCl	inactive: -1.78%
N=C(N)N[N+](=O)[O-]	inactive: -1.61%
